{
  "source": "PubChem BioAssay AID1259370",
  "about": "(Center for Chemical Genomics, University of Michigan, 2018)",
  "note": "The entries are a selection whose mix differs from that of the whole data set. Active and inactive are the calls of the source. Cut-off read from the data, not from the text of the source: active = z-score above about 3.2; inactive = the rest.",
  "data": [
    {"target": "M-phase inducer phosphatase 2 (Homo sapiens) + Cyclin-dependent kinase 2 (Homo sapiens) + Cyclin-A2 (Homo sapiens) (UniProt P30305+P24941+P20248)", "test": "primary biochemical HTRF screen for inhibition of M-phase inducer phosphatase 2 binding to cyclin-dependent kinase 2/cyclin A (AID 1259370)", "settings": "HTRF CDC25B-CDK2/CyclinA binding, anti-His/anti-Flag; stronger effect = higher value", "values": [
      {"molecule": "Cc1ccccc1NC1CC(C)(C)NC(C)(C)C1", "z-score": "inactive: -2.47"}
    ]}
  ]
}
